Experimental findings from publication PMC2682676 (Diabetes, 2009) are described below.

The conditions of the data set: after stop of the 180 min infusion; approached fasting levels by 360 min.

In the case of `CC[C@H](C)[C@H](NC(=O)[C@H](CO)NC(=O)[C@H](Cc1ccc(O)cc1)NC(=O)[C@H](CC(=O)O)NC(=O)[C@H](CO)NC(=O)[C@@H](NC(=O)[C@H](Cc1ccccc1)NC(=O)[C@@H](NC(=O)CNC(=O)[C@H](CCC(=O)O)NC(=O)[C@H](C)NC(=O)[C@@H](N)Cc1ccc(O)cc1)[C@@H](C)O)[C@@H](C)CC)C(=O)N[C@@H](C)C(=O)N[C@@H](CCSC)C(=O)N[C@@H](CC(=O)O)C(=O)N[C@@H](CCCCN)C(=O)N[C@H](C(=O)N[C@@H](Cc1c[nH]cn1)C(=O)N[C@@H](CCC(N)=O)C(=O)N[C@@H](CCC(N)=O)C(=O)N[C@@H](CC(=O)O)C(=O)N[C@@H](Cc1ccccc1)C(=O)N[C@H](C(=O)N[C@@H](CC(N)=O)C(=O)N[C@@H](Cc1c[nH]c2ccccc12)C(=O)N[C@@H](CC(C)C)C(=O)N[C@@H](CC(C)C)C(=O)N[C@@H](C)C(=O)N[C@@H](CCC(N)=O)C(=O)N[C@@H](CCCCN)C(=O)NCC(=O)N[C@@H](CCCCN)C(=O)N[C@@H](CCCCN)C(=O)N[C@@H](CC(N)=O)C(=O)N[C@@H](CC(=O)O)C(=O)N[C@@H](Cc1c[nH]c2ccccc12)C(=O)N[C@@H](CCCCN)C(=O)N[C@@H](Cc1c[nH]cn1)C(=O)N[C@@H](CC(N)=O)C(=O)N[C@H](C(=O)N[C@H](C(=O)N[C@@H](CCC(N)=O)C(=O)O)[C@@H](C)O)[C@@H](C)CC)C(C)C)[C@@H](C)CC` [GIP, Glucose-dependent insulinotropic polypeptide], the “plasma GIP levels upon termination of infusion” value is “rapidly decreased”.
